Target: SLC41A1 (human)
Test: split-ubiquitin method screen (DUALmembrane SU-YTH) for SLC41A1 complex-forming partners

B1: 3-beta-hydroxysteroid-Delta(8), Delta(7)-isomerase (enzyme)
chain: MTTNAGPLHPYWPQHLRLDNFVPNDRPTWHILAGLFSVTGVLVVTTWLLSGRAAVVPLGTWRRLSLCWFAVCGFIHLVIEGWFVLYYEDLLGDQAFLSQLWKEYAKGDSRYILGDNFTVCMETITACLWGPLSLWVVIAFLRQHPLRFILQLVVSVGQIYGDVLYFLTEHRDGFQHGELGHPLYFWFYFVFMNALWLVLPGVLVLDAVKHLTHAQSTLDAKATKAKSKKN
B1 gave an occurrence of 24 clones.
